Experimental data from patent US20090030039A1, “Piperidine Derivatives as Cxcr3 Receptor Antagonists” (priority 2006, published 2009).

Sequences of proteins named here, by UniProt entry; tags and fusion partners are left off.
UniProt P49682, whole entry: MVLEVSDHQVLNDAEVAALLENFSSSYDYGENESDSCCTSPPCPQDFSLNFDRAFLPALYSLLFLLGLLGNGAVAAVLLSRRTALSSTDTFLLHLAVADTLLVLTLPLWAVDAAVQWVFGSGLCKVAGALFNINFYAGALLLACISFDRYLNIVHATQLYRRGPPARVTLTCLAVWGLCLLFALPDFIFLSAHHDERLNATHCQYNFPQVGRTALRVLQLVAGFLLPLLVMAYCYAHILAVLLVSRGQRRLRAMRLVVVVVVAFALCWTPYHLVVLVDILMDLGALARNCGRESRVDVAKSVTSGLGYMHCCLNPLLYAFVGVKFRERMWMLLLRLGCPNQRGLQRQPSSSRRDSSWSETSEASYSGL

Target: human CXCR3 (Homo sapiens, UniProt P49682)
Assay: [35S]GTPγS exchange assay, CXCR3 receptor inhibition (hI-TAC-induced GTPγS-binding)
Conditions: -log IC50 (molar) inhibiting 50% of specific I-TAC-induced GTPγS-binding; membranes of human CXCR3-transfected CHO cells

Compound	pIC50
O=C1CCC(c2ccc(F)cc2)(C2CCN(Cc3cc4cc(Br)ccc4o3)CC2)CN1 (racemic)	5.5
O=C1CCC(c2ccncc2)(C2CCN(Cc3ccc(Br)cc3F)CC2)C(=O)N1 (racemic)	5.7
O=C1CCC(c2ccncc2)(C2CCN(Cc3ccc(Cl)c(C(F)(F)F)c3)CC2)C(=O)N1 (racemic)	5.4
O=C1CCC(c2ccncc2)(C2CCN(Cc3ccc(Cl)cc3Cl)CC2)C(=O)N1 (racemic)	5.8
O=C1CCC(c2ccncc2)(C2CCN(Cc3ccc(F)c(Cl)c3)CC2)C(=O)N1 (racemic)	5.4
O=C1CCC(c2ccncc2)(C2CCN(Cc3ccc(OC(F)(F)F)cc3)CC2)C(=O)N1 (racemic)	5.7
